Assay results reported in US5858737A, “Conversion of indene to (1S)-amino-(2R)-indanol free of any stereoisomer, by combination of dioxygenase bioconversion and chemical steps” (Merck & Co., Inc., priority 1996, dated 1999).

Tested on: P. putida F1
Test: Growth of P. putida F1 test tube cultures in MMC medium with ICR 191 (mutagenesis procedure 1)
Assay type: cell-based, Pseudomonas putida
Details: 16 to 18 hour incubation, 30° C., dark
Procedure: In procedure 1, cells were grown overnight in TSB at 30° C. and diluted 104 with phosphate buffer (100 mM, pH 7.2). Several 18×150 mm test tubes containing 3 ml of MMC medium plus 0 (control), 10, 20, 30, 40, 50, 75, or 100 mg/l ICR 191 were inoculated with 0.1 ml of the diluted inoculum. Test tube cultures were incubated in the dark at 30° C. with 220 RPM agitation. […] The cells from 20 mg/l ICR 191 culture were harvested by centrifugation, washed twice with phosphate buffer.

## COc1ccc2nc3cc(Cl)ccc3c(NCCCNCCCl)c2c1 [ICR 191]
10 mg/l ICR 191
  growth of culture: no detectable effect on growth
20 mg/l ICR 191
  growth of culture: approximately half that of the control
30 mg/l ICR 191
  growth of culture: trace of growth
ICR 191 concentrations above 30 mg/l
  growth of culture: completely inhibited growth
